System: MC3T3-E1 cells
Assay: Alkaline phosphatase activity assay (p-nitrophenyl phosphate) in osteoblasts
Type: cell-based
Conditions: 50 ng/ml rhBMP-2; osteogenic media
Method: To test whether BBA-1 retained any of the pro-osteogenic action of CSA-90, MC3T3-E1 cells were differentiated in osteogenic media with either 5 μM CSA-90 or BBA-1, with or without 50 ng/ml rhBMP-2. A p-nitrophenyl phosphate assay was performed for alkaline phosphatase activity (Sigma-Aldrich) and normalized to day-3 cells grown in osteogenic media and α-MEM media. Assays were performed in triplicate with two independent repeats.

B1: rhBMP-2: recombinant human bone morphogenetic protein-2 (protein, UniProt P12643 283-396, looked up)
Bone morphogenetic protein 2: QAKHKQRKRLKSSCKRHPLYVDFSDVGWNDWIVAPPGYHAFYCHGECPFPLADHLNSTNHAIVQTLVNSVNSKIPKACCVPTELSAISMLYLDENEKVVLKNYQDMVVEGCGCR
- Alkaline phosphatase expression, rhBMP-2: increased alkaline phosphatase expression

— patent US20220273673A1, “BONE-BINDING COMPOUNDS” (BRIGHAM YOUNG UNIVERSITY, priority 2019, published 2022)
